Data published in patent US12570631B2, “Substituted N-(4-(pyrimidin and pyridin-4-yl)benzylcarboxamides and its use for treating disorders responsive to inhibition of Btk” (BIOGEN MA INC., priority 2019, dated 2026).

The chains behind the UniProt entries cited, without tags or fusion partners. Where a name states a change or a piece, a line headed by the entry shows the natural chain unless it says otherwise.
UniProt Q06187: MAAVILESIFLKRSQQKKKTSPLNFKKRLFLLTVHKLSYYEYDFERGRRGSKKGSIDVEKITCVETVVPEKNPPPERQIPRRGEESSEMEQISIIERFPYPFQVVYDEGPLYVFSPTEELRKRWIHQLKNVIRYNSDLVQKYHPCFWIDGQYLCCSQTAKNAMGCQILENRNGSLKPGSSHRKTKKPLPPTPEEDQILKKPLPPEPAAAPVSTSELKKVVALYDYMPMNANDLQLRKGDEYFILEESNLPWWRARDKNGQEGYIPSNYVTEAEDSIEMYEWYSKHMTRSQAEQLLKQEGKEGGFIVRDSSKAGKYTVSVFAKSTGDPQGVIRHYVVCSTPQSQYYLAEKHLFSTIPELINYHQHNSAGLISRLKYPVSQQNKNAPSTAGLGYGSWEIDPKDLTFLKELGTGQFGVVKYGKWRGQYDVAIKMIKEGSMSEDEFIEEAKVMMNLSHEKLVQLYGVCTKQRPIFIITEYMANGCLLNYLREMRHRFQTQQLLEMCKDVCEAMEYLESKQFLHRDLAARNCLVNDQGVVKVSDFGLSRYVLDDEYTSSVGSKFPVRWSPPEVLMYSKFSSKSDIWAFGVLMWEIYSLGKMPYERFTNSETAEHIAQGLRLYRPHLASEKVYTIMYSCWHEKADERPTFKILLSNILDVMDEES

Biological target: BTK (Homo sapiens (Human), UniProt Q06187)
Experiment: In vitro BTK kinase assay: Btk-PolyGAT-LS assay
Assay type: biochemical
Details: ATP 10 μM, polyGAT 100 nM, BTK 0.25 nM, 30 minutes

Row | SMILES | pIC50
1 | Cc1cc(-c2ccncc2OC2CN(C#N)C2)ccc1CNC(=O)c1cn(C(C)(C)C)nn1 [Example 45, 1-(tert-butyl)-N-(4-(3-((1-cyanoazetidin-3-yl)oxy)pyridin-4-yl)-2-methylbenzyl)-1H-1,2,3-triazole-4-carboxamide] | < 8.00
2 | Cc1cc(-c2ccncc2OC2CCN(C#N)C2)ccc1CNC(=O)c1cn(C(C)(C)C)nn1 (stereo not drawn) [Example 46, 1-(tert-butyl)-N-(4-(3-((1-cyanopyrrolidin-3-yl)oxy)pyridin-4-yl)-2-methylbenzyl)-1H-1,2,3-triazole-4-carboxamide] | < 8.00
3 | Cc1cc(-c2ccncc2OC2CCN(C#N)CC2)ccc1CNC(=O)c1cn(C(C)(C)C)nn1 [Example 47, 1-(tert-butyl)-N-(4-(3-((1-cyanopiperidin-4-yl)oxy)pyridin-4-yl)-2-methylbenzyl)-1H-1,2,3-triazole-4-carboxamide] | < 8.00

pIC50: −log10 of the molar value.
